Data published in patent US11680056B2, “MK2 inhibitors and uses thereof” (Xinthera, Inc., priority 2021, dated 2023).

Protein sequences, listed by entry. Tags and fused reporters are not part of them. Residues count along the entry.
UniProt P49137, 46-400 limits assumed: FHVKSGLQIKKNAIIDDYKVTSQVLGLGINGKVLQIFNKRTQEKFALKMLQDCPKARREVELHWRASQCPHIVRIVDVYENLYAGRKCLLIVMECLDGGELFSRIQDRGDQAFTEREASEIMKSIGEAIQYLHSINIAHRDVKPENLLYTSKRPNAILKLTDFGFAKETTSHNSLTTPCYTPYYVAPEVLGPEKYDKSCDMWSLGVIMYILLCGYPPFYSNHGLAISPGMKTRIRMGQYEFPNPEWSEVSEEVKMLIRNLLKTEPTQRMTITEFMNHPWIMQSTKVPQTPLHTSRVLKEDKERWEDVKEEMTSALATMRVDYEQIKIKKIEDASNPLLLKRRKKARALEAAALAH
UniProt Q16539, whole entry: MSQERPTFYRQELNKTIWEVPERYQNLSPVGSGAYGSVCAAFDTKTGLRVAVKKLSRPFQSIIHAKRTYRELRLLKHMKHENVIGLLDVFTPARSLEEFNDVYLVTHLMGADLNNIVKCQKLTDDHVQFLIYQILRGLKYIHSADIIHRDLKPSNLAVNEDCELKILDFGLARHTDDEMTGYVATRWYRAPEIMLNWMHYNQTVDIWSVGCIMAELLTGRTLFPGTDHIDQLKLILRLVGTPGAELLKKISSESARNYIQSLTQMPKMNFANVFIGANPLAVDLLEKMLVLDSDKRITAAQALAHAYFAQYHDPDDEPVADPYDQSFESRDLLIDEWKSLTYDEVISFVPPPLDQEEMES

Key:
p38a/MK2 = p38a/MK2 (Homo sapiens (Human), UniProt P49137+Q16539); test: p38a/MK2 biochemical assay: activation of MK2 by p38, FITC-HSP27 peptide phosphorylation (IMAP FP); details: 10-point 1:3 dilution, top dose 1 μM; 60 pM active p38a, 1 nM inactive MK2, 10 μM ATP, 2 h incubation
Procedure: (§1) Expression vectors of the recombinant MK2 and PRAK kinases were constructed by cloning of the codon optimized gene sequences of MK2 (Uniprot ID P49137, amino acid fragment F46-H400), or PRAK (Uniprot ID Q81W41, amino acid fragment M1-Q471) into pGEX-4T1 (GE) for over expression of these kinases with N-terminal GST-tag. Protein expression was carried out in E. coli BL21 by growing the hosts in TB medium, induction of protein expression with 0.5 mM IPTG at approximate 0.8 OD600, and incubation of the cultures at 18° C. for 14-20 hours afterwards. The harvested cells were resuspended in […] of Lysis buffer (50 mM Tris-HCl, pH 8.0, 500 mM NaCl, 1 mM DTT, 5% glycerol, and 1 mM PMSF) per gram of wet cell mass and homogenized at 4° C. in a microfluidizer (ATS, Suzhou, China) at 14,000 psi pressure, 3 passes. The cell lysates were clarified by centrifugation and the supernatants containing the GST-fusion proteins were purified by affinity chromatography using GSH-Sepharose (GE) gravity flow columns pre-equilibrated in Buffer A (50 mM Tris-HCl, pH 8.0, 500 mM NaCl, 1 mM DTT, and 5% glycerol). […]
(§2) This study evaluates the inhibitory potency of invention compound on p38/MK2 pathway vs p38/PRAK pathway. More specially the compound concentration (IC50) was determined that inhibited half of the maximal activation of MK2 or PRAK by p38. […] The MK2 and PRAK activity were determined by the phosphorylation level of HSP27 peptide conjugated with FITC.
(§3) After 2 h incubation of the reaction mixture with various concentration of invention compound (200 nL), 60 μL 1×IMAP solution Mixture (Molecular Devices, Cat R8127) was added to the reaction mixture and incubated for another half hour. The signal was then read by Synergy™ Neo2 Multi-Mode Microplate Reader with filter setting (Ex/Em=485 nm/FITC FP-P pol 528 nm & FITC FP-S pol 528 nm)
(§4) The signal was then normalized to vehicle control and fitted in Xfit to generate IC50. The selectivity of MK2 over PRAK was calculated by the formular Selectivity=IC50 of PRAK/IC50 of MK2.

p38a/PRAK = p38a/PRAK (Homo sapiens (Human), UniProt Q16539); test: p38a/PRAK biochemical assay: activation of PRAK by p38, FITC-HSP27 peptide phosphorylation (IMAP FP); details: 10-point 1:3 dilution, top dose 300 μM; 60 pM active p38a, 1 nM inactive PRAK, 10 μM ATP, 2 h incubation
Procedure: as §1, §2, §3, §4

SMILES | p38a/MK2 (1 μM) Enzyme pIC50 (p38a/MK2) | p38a/PRAK Enzyme pIC50 (p38a/PRAK)
Cc1cnc(-n2ccc(C(C)(C)O)n2)c(F)c1-n1c(C)cc(OCc2ncc(F)cc2F)c(Cl)c1=O | <6.0 | <3.5
CNC(=O)C(C)(C)c1nccc(-c2nccc(-n3c(C)cc(OCc4ncc(F)cc4F)c(Cl)c3=O)c2C)n1 [60A] | <7.0 | <3.5
CNC(=O)C(C)(C)c1nccc(-c2nccc(-n3c(C)cc(OCc4ncc(F)cc4F)c(Cl)c3=O)c2C)n1 [60B] | 7.6 | 4.7
